From PubChem
The list is not random: actives were taken first. Their share in the collection is about 3.7%.
Nrf2 block: inhibitors of Nrf2 signaling | AID 504444 | Potency, µM (titrated, usually from 46 µM), hits mostly inhibitors | A549 ARE-Fluc reporter, luciferase luminescence, 18-24 h | 360,000 compounds, 2.1% hits; further: nearly all actives have a fitted effect of over 60% in size
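Reporter: ARE-Fluc in A549. Exposure: 18-24 h, 37 °C, 5% CO2, 5% FBS OPTI-MEM. Readouts: fluorescent cytotoxicity (CellTiter-Fluor), then luminescent Nrf2 signal after BugLite.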
IL2 activator: activates IL-2 in a cell-based reporter assay; activation, % (series mostly up to about 46 µM); IL-2 activation reporter assay, cell-based qHTS; stimulated with anti-CD3/CD4/CD28 beads; in transgenic mouse T cells; 360,000 compounds, 0.065% hits; AID 652025; in the data active means activation above about 50%; inconclusive means mostly about 30% to 49%
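Quantitative HTS in unstimulated transgenic mouse T cells, with memory T cells as non-tolerant control and PMA/ionomycin as tolerance-bypass control. Compound pretreatment lasted 60 minutes before 18 h bead stimulation; EGFP/DsRed fluorescence read.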
miR-21 reporter: raises the signal of a miR-21 reporter | HeLa miR-21 FLuc reporter, luciferase, 48 h | Potency, µM (highest dose often 38.3 µM) | 340,000 tested, under 10 active | AID 2288; active = well fitted rising curve with a large enough effect; inconclusive = small, poorly fitted or top-dose-only effect; inactive = no such curve, though single readings can be large or run the other way;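 note: miR-21 action dims this reporter so a rising signal means less miR-21 action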
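HeLa cells stably expressing CMV-driven firefly luciferase with a downstream miR-21 binding sequence, endogenously expressing miR-21, were treated with titrations (up to about 40uM final) for 48 hours at 37 degree Celsius. Luciferase luminescence was read after lysis.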
ClpP mod: qHTS Assay for Activators of ClpP. ATP-dependent Clp protease proteolytic subunit (Bacillus subtilis (strain 168)), P80244. purified B. subtilis ClpP, FRET peptide cleavage, 20 min. Potency, µM (series often up to 57.5 µM). 340,000 compounds, 1.9% hits. AID 651965, 2013; active means well fitted falling curve with a large enough effect; inconclusive means small, poorly fitted or top-dose-only effect; inactive means no such curve, though single readings can be large or run the other way; further: the source files actives as falling curves though it sought activators and does not explain the sign; nearly all actives have a fitted effect of over 65% in size
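ClpP 10 microg/mL final, pH 8 Tris/KCl buffer with BSA, glycerol, Tween-20; compound pinned in; FRET-FV substrate; RT 20 min; Ex320/Em430; ΔFRET vs ADEP 5.8 microM, DMSO, no enzyme.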
A549 tox: kills or reduces viability of A549 cells in Nrf2 counter-screen; A549 ARE-Fluc cells, CellTiter-Fluor viability, 18-24 h; Potency, µM (titrated, usually from 46 µM), actives largely listed as inhibitors; 390,000 compounds, 0.16% hits; AID 504648
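Cytotoxicity counterscreen: CellTiter-Fluor fluorescence was measured in A549 ARE_Fluc cells after 18-24 h of compound exposure in a concentration series. The subsequent BugLite luminescent read reports ARE-luciferase activity.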
Nrf2 activator: activates Nrf2 signaling. AREc32 ARE-luciferase reporter (MCF7-derived line), luminescence, 24 h. Potency, µM (doses to about 46.1 µM), most hits filed as activators. 410,000 compounds, 0.31% hits; further: nearly all actives have a fitted effect of over 65% in size
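For detection, Steady-Glo was added and plates sat 30 min at RT; before that, AREc32_Fluc cells grown overnight in OPTI-MEM/5% FBS had been treated with 23 nL compound for 24 hr at 37 deg C.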
Each line names hits and unclear results; the compound was inactive in the other large screens. Unless noted, the call rests on the fitted dose curve; in most records, active means well fitted curve in the direction sought with a large enough effect; inconclusive means small, poorly fitted or top-dose-only effect, or another doubt; inactive means no such curve, though single readings can be large; an effect the other way counts as inactive or inconclusive.

CCN1CCN(CC(=O)N2N=C(c3cccs3)CC2c2ccc(C)cc2)C(=O)C1=O (centres undefined)	none
Cc1ccc(C2CC(c3cccs3)=NN2C(=O)CSc2nc3ccccc3o2)cc1 (centres undefined)	ClpP mod 14µM
O=C(CSc1nc2ccccc2o1)N1N=C(c2cccs2)CC1c1ccc(F)cc1 (centres undefined)	Nrf2 block inconclusive, ClpP mod 32µM
COc1ccc(-c2nc(C#N)c(N3CC(C)OC(C)C3)o2)cc1OC (centres undefined)	ClpP mod 0.71µM
CCN(CC)CCCNc1oc(-c2ccc(OC)c(OC)c2)nc1C#N	none
COc1ccc(-c2nc(C#N)c(NCc3ccc(C)cc3)o2)cc1OC	Nrf2 block inconclusive, ClpP mod 32µM
COc1ccc(-c2nc(C#N)c(NCCc3ccccc3)o2)cc1OC	ClpP mod 6.3µM
CCOC(=O)c1cc(-c2ccc(OC)cc2)nc2c1c(C)nn2CCC#N	Nrf2 block inconclusive, ClpP mod 25µM
O=C(N/N=C(\c1ccccc1)c1ccccn1)c1ccccc1Cl	Nrf2 block inconclusive, ClpP mod 8.9µM, Nrf2 activator inconclusive
C/C(=N\NC(=O)c1ccccc1Cl)c1ccccn1	Nrf2 block inconclusive, A549 tox inconclusive
S=C(NN=C(c1ccccc1)c1ccccn1)N(Cc1ccccn1)Cc1ccccn1	Nrf2 block inconclusive, A549 tox 12µM (no result: miR-21 reporter)
Cc1cc2c(s1)c1cnn(Cc3ccc(C(F)(F)F)cc3)c(=O)c1n2C	none (no result: IL2 activator, miR-21 reporter, ClpP mod, Nrf2 activator)
Cc1cccc(CC(=O)NCCc2csc(-c3ccc(C(F)(F)F)cc3)n2)c1	ClpP mod inconclusive (no result: Nrf2 block, IL2 activator)
CC(=O)Nc1ccc(SCC(=O)c2cc(C)n(-c3ccccc3)c2C)cc1	Nrf2 block inconclusive, ClpP mod inconclusive
CCCCCCCC[n+]1c(C)n(-c2ccccc2)c2ccc(NC(C)=O)cc21	Nrf2 block 12µM, miR-21 reporter inconclusive (no result: ClpP mod)
CCOC(=O)c1scc(-c2ccccc2)c1S(=O)(=O)N1CCN(c2ccc(Cl)cc2)CC1	none (no result: IL2 activator)
CCOC(=O)C1CN(S(=O)(=O)c2ccccc2)CCN1S(=O)(=O)c1ccccc1 (centres undefined)	none (no result: Nrf2 block)
CCc1cccc(C)c1NC(=O)C1CN(S(=O)(=O)c2ccccc2)CCN1S(=O)(=O)c1ccccc1 (centres undefined)	ClpP mod 25µM
COc1cccc(-c2oc3ccc(C)cc3c(=O)c2O)c1	none (no result: IL2 activator)
O=C(/C=C\c1ccc2c(c1)OCO2)NC1CC(=O)N(c2ccc(F)cc2)C1 (centres undefined)	ClpP mod inconclusive (no result: Nrf2 block, IL2 activator)
O=c1nc(N/N=C/c2c[nH]c3ccccc23)cn[nH]1	Nrf2 block inconclusive (no result: ClpP mod)
O=c1cnnc(N/N=C/c2c[nH]c3ccccc23)[nH]1	Nrf2 block inconclusive, Nrf2 activator 13µM (no result: ClpP mod)
Cc1c(C(=O)Nc2ccc(Br)cc2F)sc2ncnc(N(C)C3CCCCC3)c12	none (no result: Nrf2 block, IL2 activator)
Cc1ccc(CN(C(=O)COc2ccc(Cl)c(C)c2)c2ccccn2)o1	none (no result: IL2 activator)
Cc1sc2ccccc2[n+]1CC(=O)c1ccc(F)cc1	none (no result: Nrf2 block, IL2 activator, miR-21 reporter, A549 tox, Nrf2 activator)
CCOC(=O)N1CCC(NC(=O)C2CCCN(Cc3nc(-c4cccc(Cl)c4)oc3C)C2)CC1 (centres undefined)	Nrf2 block 16µM
N=c1c2c(ccn1Cc1ccccc1)Oc1ccc3ccccc3c1C2c1ccccc1 (centres undefined)	Nrf2 block 5.2µM, A549 tox 12µM (no result: IL2 activator, miR-21 reporter, ClpP mod, Nrf2 activator)
CCOc1ccc(NC(=O)c2cccc(N3CCCS3(=O)=O)c2)cc1	none (no result: IL2 activator)
N#Cc1ccc(S(=O)(=O)NCC(=O)OCC(=O)N2CCCC2=O)cc1	ClpP mod 14µM (no result: miR-21 reporter)
Cc1ccc(S(=O)(=O)NCCC(=O)OCC(=O)N2CCCC2=O)cc1	none (no result: miR-21 reporter)
CCOc1ccc(-c2cc(NC(=O)Nc3ccccc3Cl)c(C(=O)OC)s2)cc1	Nrf2 block inconclusive, ClpP mod 14µM (no result: IL2 activator)
CCN(CC)c1cc(C)c2cc(NC(=O)/C=C/c3ccc(C)cc3)ccc2n1	none (no result: IL2 activator)
